Source: patent US20060062747A1, “Use of sweetener acids for the microbiological stabilization of foodstuffs, cosmetic products, consumer goods and pharmaceutical productions” (Nutrinova Nutrition Specialties & Food Ingredients GmbH, priority 2002, published 2006)

Assay: pH of the test solutions and drinks
Conditions: Example 2; identical acid taste solutions (Table 5)

pH: 3.08
SMILES: O=S(=O)(O)NC1CCCCC1 [Cyclamic acid, N-cyclohexylsulfaminic acid]
